Experimental data published in patent US20200325208A1.

Molecular target: Human VEGF121/VEGF-A protein (human VEGF 121 isoform) with 6-His tag (human) (UniProt P15692)
Assay: ELISA, antigen captured by anti-His antibody on plate, HRP anti-IgG Fc detection

Substance: TNFα/LC-GS6-VEGFR-IgG1 (from UniProt P0DOX5 2-449)
- pEC50: 7.71

pEC50: −log10 of the molar value.
